In patent US20070026465A1, “Method for detecting GAD65 autoreactive T cells newly diagnosed type1 diabetic patients and in the prediabetic period” (priority 2005, published 2007):
Values joined by “and” are separate entries in the source; they are usually repeats but may differ in a detail not shown here. Equal entries are not always repeated.

System: PBMC of newly diagnosed T1D patients
Assay: GAD65 HLA class I tetramer staining and flow cytometry of stimulated PBMC, T1D patients
Assay type: cell-based, human
Design: % CD3+/CD8+/GAD65 reactive T cells, average / % CD3+/CD8+/GAD65 reactive T cells: concentration or dose not given beside the values
Details: IL-2 treated PBMC

IL-2: cytokine used at 25 IU/ml for basal stimulation of PBMC [reference compound]
% CD3+/CD8+/GAD65 reactive T cells, average (average of 22 T1D patients, day 6): 4.0%
% CD3+/CD8+/GAD65 reactive T cells (individual T1D patients, day 6 of culture): 1.4% and 0.32% and 0.1% and 2.44% and 0.2% (3×) and 5% and 20% and 8.6% and 0.75% and 14% and 11% and 0.6% and 1.74% and 2.45% and 0.21% and 2.47% and 15% and 0.28% (2×) and 1.31%
